The values below come from ChEMBL document CHEMBL5126517, “Structure-Activity Relationship in the Leucettine Family of Kinase Inhibitors” (J Med Chem, 2022).

Protein sequences, listed by entry. Tags and fused reporters are not part of them. Lines headed by an entry give the natural chain unless they say otherwise; changes in a name come on top.
UniProt O35493: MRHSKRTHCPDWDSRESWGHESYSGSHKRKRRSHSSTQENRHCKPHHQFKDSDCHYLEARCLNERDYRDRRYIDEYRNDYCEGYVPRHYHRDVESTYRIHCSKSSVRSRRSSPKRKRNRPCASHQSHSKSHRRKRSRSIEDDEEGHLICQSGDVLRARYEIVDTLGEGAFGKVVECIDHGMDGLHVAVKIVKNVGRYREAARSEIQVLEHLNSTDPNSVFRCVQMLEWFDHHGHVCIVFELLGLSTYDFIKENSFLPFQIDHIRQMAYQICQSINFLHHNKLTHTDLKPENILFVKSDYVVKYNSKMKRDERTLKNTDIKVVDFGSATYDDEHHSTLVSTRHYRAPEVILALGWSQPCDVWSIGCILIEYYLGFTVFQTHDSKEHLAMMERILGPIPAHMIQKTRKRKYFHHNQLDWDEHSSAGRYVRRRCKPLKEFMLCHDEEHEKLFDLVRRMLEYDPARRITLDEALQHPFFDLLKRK

The subject of assay [1] is HT-22. The experiment in a line: Modulation of CLK1 pre-mRNA splicing in mouse HT-22 cells assessed as inclusion of CLK1 exon 4 by measuring change in threshold cycle at 10 uM measured after 4 hrs by real time PCR analysis. Format: cell-based. The conditions noted are these: filed as modulator. (Quantitative PCR measures a nucleic acid by following its amplification.)

Assay [2] addresses Dual specificity protein kinase CLK4 (Mus musculus, UniProt O35493). Nature of the assay: Inhibition of GST-fused mouse recombinant CLK4 expressed in Escherichia coli using GRSRSRSRSRSR peptide as substrate incubated for 30 mins in presence of ATP by scintillation counting method.
For assay [3], the target named is T1, Dual specificity tyrosine-phosphorylation-regulated kinase 3 (Homo sapiens, UniProt O43781).
T1 sequence (O43781 whole entry): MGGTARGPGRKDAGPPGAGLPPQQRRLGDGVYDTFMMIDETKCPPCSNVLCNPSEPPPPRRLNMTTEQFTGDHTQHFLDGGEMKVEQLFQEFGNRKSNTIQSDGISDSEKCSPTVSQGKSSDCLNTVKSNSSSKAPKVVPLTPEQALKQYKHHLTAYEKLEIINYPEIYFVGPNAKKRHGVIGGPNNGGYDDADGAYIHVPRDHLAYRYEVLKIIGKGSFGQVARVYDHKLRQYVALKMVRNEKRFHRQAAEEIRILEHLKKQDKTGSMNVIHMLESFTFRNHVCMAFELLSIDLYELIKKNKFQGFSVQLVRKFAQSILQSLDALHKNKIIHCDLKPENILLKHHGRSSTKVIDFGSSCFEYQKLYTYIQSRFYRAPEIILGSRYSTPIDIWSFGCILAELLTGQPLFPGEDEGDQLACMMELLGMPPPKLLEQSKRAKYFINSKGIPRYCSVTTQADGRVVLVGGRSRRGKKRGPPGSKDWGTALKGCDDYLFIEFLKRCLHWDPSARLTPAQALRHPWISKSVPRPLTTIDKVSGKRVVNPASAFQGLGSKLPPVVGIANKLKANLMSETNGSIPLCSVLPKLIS
The experiment in a line: Inhibition of GST-fused human recombinant DYRK3 expressed in Escherichia coli using GRSRSRSRSRSR peptide as substrate incubated for 30 mins in presence of ATP by scintillation counting method.

Regarding `O=C1NC(Nc2ccccc2)=N/C1=C\c1ccc2c(c1)OCCCO2`, in assay [1], the deltaCT worked out at 0.15.

For `O=C1NC(Nc2ccc(Oc3ccccc3)cc2)=N/C1=C\c1ccc2c(c1)OCO2`, the deltaCT in assay [1] was 0.18. Consider `Cc1ccc(C)c(NC2=N/C(=C\c3ccc4c(c3)OCO4)C(=O)N2)c1`, for which the deltaCT in assay [1] stood at 6.1. The same measure, in the same setting: the figure for `O=C1NC(Nc2ccc(F)cc2)=N/C1=C\c1ccc2c(c1)OCO2` is 5.73; for `O=C1NC(Nc2ccc(N3CCNCC3)cc2)=N/C1=C\c1ccc2c(c1)OC=CO2` it is 0.41. As to `CCCCOc1ccc(/C=C2\N=C(Nc3ccccc3)NC2=O)cc1OC`, the deltaCT in assay [1] is 0.38. As to `COc1cc(/C=C2\N=C(Nc3ccccc3)NC2=O)ccc1O`, the deltaCT in assay [1] amounted to 8.64. Still for that read-out and setting: the figure for `CCCCCOc1ccc(NC2=N/C(=C\c3ccc4c(c3)OCO4)C(=O)N2)cc1` is 0.01. The IC50 is the concentration that inhibits the measured activity by half. As for `[2H]C1([2H])Oc2ccc(/C=C3\N=C(Nc4ccccc4)NC3=O)cc2O1`, the IC50 in assay [2] turned out to be 29 nM; in assay [3], 400 nM. On to `CCCCCCc1ccc(NC2=N/C(=C\c3ccc4c(c3)OCO4)C(=O)N2)cc1`, for which the deltaCT in assay [1] came to 0.03. The same measure, in the same setting: the figure for `O=C1NC(Nc2ccc(-c3ccccc3)cc2)=N/C1=C\c1ccc2c(c1)OCO2` is 0.3. The same measure, in the same setting: the figure for `O=C1NC(Nc2ccc(N3CCCCC3)cc2)=N/C1=C\c1ccc2c(c1)OCO2` is 0.28; for `O=C1NC(Nc2ccccc2)=N/C1=C\c1ccccc1` it is 0.34; for `O=C1NC(Nc2ccccc2)=N/C1=C\c1ccc2c(c1)CCO2` it is 8.2. On the same count and under the same terms, the figure for `COc1cc(/C=C2\N=C(Nc3ccc(N4CCCCC4)cc3)NC2=O)ccc1O` is 0.33; for `O=C1NC(Nc2ccc(N3CCNCC3)cc2)=N/C1=C\c1ccc2c(c1)OCO2` it is 0.37; for `COc1cc(/C=C2\N=C(Nc3ccc(N4CCNCC4)cc3)NC2=O)ccc1O` it is 0.72. As to `O=C1NC(N2CCN(c3ccc(F)cc3)CC2)=N/C1=C\c1ccc2c(c1)OCCO2`, the deltaCT in assay [1] was 0.12. On the same count and under the same terms, the figure for `O=C1NC(Nc2ccccc2)=N/C1=C\c1ccc(O)c(O)c1` is 2.69. On the same count and under the same terms, the figure for `CN(C1=N/C(=C\c2ccc3c(c2)OCO3)C(=O)N1)c1ccccc1` is 1.16; for `COc1cc(/C=C2\N=C(Nc3ccc(N4CCN(C)CC4)cc3)NC2=O)ccc1O` it is 0.52. Regarding `O=C1NC(Nc2ccccn2)=N/C1=C\c1ccc2c(c1)OCO2`, the deltaCT in assay [1] is 6.6.

As for `O=C1NC(Nc2ccccc2)=N/C1=C\c1ccc2c(c1)CCCO2`, the deltaCT in assay [1] amounted to 0.75. On the same count and under the same terms, the figure for `Cc1ccc(NC2=N/C(=C\c3ccc4c(c3)OCO4)C(=O)N2)c(C)c1` is 1.21. Same read-out and setting: the figure for `O=C1NC(Nc2ccc(O)c(F)c2)=N/C1=C\c1ccc2c(c1)OCO2` is 9.73.

For `Cc1ccc(NC2=N/C(=C\c3ccc4c(c3)OCO4)C(=O)N2)cc1C`, the deltaCT in assay [1] stood at 4.57. On the same count and under the same terms, the figure for `O=C1NC(Nc2cccc(F)c2)=N/C1=C\c1ccc2c(c1)OCO2` is 8.85; for `COc1cccc(/C=C2\N=C(Nc3ccccc3)NC2=O)c1` it is 0.41; for `O=C1NC(Nc2ccccc2)=N/C1=C\c1ccc(F)cc1` it is 0.19.

Consider `COc1ccc(/C=C2\N=C(Nc3ccccc3)NC2=O)cc1O`, for which the deltaCT in assay [1] is 0.1. Same read-out and setting: the figure for `O=C1NC(Nc2ccccc2)=N/C1=C\c1ccc2c(c1)OCCO2` is 3.14; for `CCCCCCc1ccc(NC2=N/C(=C\c3ccc(O)c(OC)c3)C(=O)N2)cc1` it is 0.82. On to `O=C1NC(Nc2ccccc2)=N/C1=C\c1cccc(F)c1`, for which the deltaCT in assay [1] came out at 0.08. Still for that read-out and setting: the figure for `CN1CCN(c2ccc(NC3=N/C(=C\C4=COc5ccccc5O4)C(=O)N3)cc2)CC1` is 6.68; for `COc1ccc(/C=C2\N=C(Nc3ccccc3)NC2=O)cc1` it is 0.42.
